Reference: patent US6800481B1, “Stable macroscopic membranes formed by self-assembly of amphiphilic peptides and uses therefor” (priority 1992, dated 2004)

Experiments:
[1] = assay type: physicochemical; settings: secondary structure
Description: Circular dichroism (CD) spectra were taken on an Aviv Model 60DS spectropolarimeter using program 60HDS for data processing. Because EAK16 contains both positively and negatively charged residues, the peptide itself can serve as a buffer. CD samples were prepared and measured at 25° C., unless otherwise indicated. All reagents were ultrapure and solutions were filtered through a […] before use. Circular dichroism (CD) spectroscopy was used to monitor the stability of the β-sheet structure of EAK16 under various conditions. Dilute […] concentrations. […] A 3 mM stock EAK16 solution was mixed in water to a concentration of 20 μM, allowed to equilibrate, and the CD spectrum measured. The solution was then diluted five times by two-fold serial dilutions to final concentrations of […], 10, 5.0, 2.5, 1.25 and 0.625 μM, allowed to equilibrate and CD spectra taken. Reverse experiments, in which the concentration of peptide was increased by adding more peptide, were also done and similar results were obtained. Temperature. The CD spectra of 8 μM EAK16 at 25, 37, 55, 70 and 90° C. in water were measured. The ratios of ellipticity at 194 nm/217 nm remained approximately 4.0 over the temperature range of 25-90° C. […] EAK16 has a calculated pI Of 6.71. It was assumed that changes of pH would have a great effect on the β-sheet structure, especially when the charged groups are neutralized. […]

[2] = Testing of peptides for macroscopic membrane formation (phase-contrast microscope, Congo Red staining); assay type: physicochemical; parameters: key to membranous structure in DMEM / membranous structure in PBS / membranous structure in Water: The + and − denotes the presence and absence of the membranous structure, respectively.; The + and − denotes the presence and absence of the membranous structure, respectively
Description: The effect of length and sequence on membrane formation was examined using several peptides (Table 1 and Example 3). […] The peptide length should be more than 12 amino acids and preferably at least 16 residues. Very long peptides, e.g., of about 200 amino acids, may encounter problems due to insolubility and intramolecular interactions which destabilize membrane formation. Furthermore, peptides with a large amount of hydrophobic residues may have insolubility problems. The optimal lengths for membrane formation will probably vary with the amino acid composition.
Four non-amphiphilic peptides of varying amino acid sequence were tested for membrane formation; these are β-amyloid (1-28) (SEQ ID NO: 4), β-amyloid (23-35) (SEQ ID NO: 5), substance P (SEQ ID NO: 6), and spantide (SEQ ID NO: 7).
The EAK12 and EAK16 tested for membrane formation were acetylated and aminylated at both N- and C-terminal ends. Blocking of both of the N- and C-termini of EAK16 appeared not to be essential for membrane formation. The peptides were initially dissolved in water (5 mg/ml) or in 23% acetonitrile (10 mg/ml). A volume of 5-10 microliters of the dissolved peptides were applied to the DMEM medium, PBS or water. The formation of the membrane was first observed under a phase-contrast microscope and then, by the naked eye after staining with Congo Red.

Substance: H2N-DAEFRHDSGYEV-HHQKLVFFAEDVGSNK-COOH [β-Amyloid (1-28), reference compound]
- Structure [1]: RC, α, β
- membranous structure in DMEM ([2]; DMEM medium): −
- membranous structure in PBS ([2]; PBS): −
- formation of macroscopic membranes ([2]; identical conditions, in words): None of these peptides produced macroscopic membranes
- membranous structure in Water ([2]; water): −
